This test relates to MCF-7 cells. As to the kind of experiment: MCF-7/fibroblast co-culture proliferation with EGFR inhibition (live cell imaging). The test is classed as cell-based, human. Here is the method:
For experiments testing estrogen or anti-endocrine effects, estrogen positive cells were grown in phenol red-free media with 5% dextran-coated charcoal-stripped FCS for 1-3 days prior to drug treatments. For hormone therapy, cultures were either supplemented with 10 nM 17-β-estradiol or ethanol vehicle alone. For proliferation experiments, cultures were supplemented with 100 nM 4-hydroxy-tamoxifen (tamoxifen), 10 μM gefitinib or ethanol vehicle control. For conditioned media experiments, estrogen free media was conditioned on a confluent layer of fibroblasts or ER+ epithelial tumor cells for 24 hours. Tumor cells were seeded in 96-well plates at a density of 3,000 cells per well in complete media and allowed to attach for 24 hours. The media was changed to conditioned media (65% conditioned media, 35% fresh estrogen free complete media) supplemented with ethanol vehicle, estrogen or estrogen plus tamoxifen.
Proliferation was measured by total protein sulforhodamine assay (SRB) or by live cell imaging. Cells were processed for the sulforhodamine B colorimetric (SRB) assay 72 hours after treatment. Briefly, culture media was removed and cells were gently washed 1× with PBS followed by a 30-minute incubation at 4° C. in 10% trichloroacidic acid. Cells were washed 5 times with deionized water and plates were dried for 2 hours. Sulforhodamine B (0.2%) dye was added for 20 minutes at room temperature, followed by 5 washes with 1% acetic acid and a 2-hour drying period. Each well of a 96-well plate received 0.2 mL of 10 mM unbuffered tris base and was agitated for 10 minutes. Total protein was assessed using a BioTek (Winooski, Vt.) Synergy 2 microplate reader (565 nm-690 nm background). Live cell imaging analysis was completed using the Essen BioScience IncuCyte Zoom (Ann Arbor, Mich.) and analyzed using the IncuCyte associated software.
As a corollary, it was determined if growth of BCCs influenced by CD146^neg fibroblasts were sensitive to EGFR inhibition. […]

“Also recorded” adds a separate entry of the source.

`COc1cc2ncnc(Nc3ccc(F)c(Cl)c3)c2cc1OCCCN1CCOCC1` [gefitinib]: the reduction of proliferation (MCF-7 cultured with CD146neg fibroblasts, 10 μM, 72 hours post-treatment, 2.5% FBS) is listed as 60%. The “proliferation response (FIG. 5D legend)” value (MCF-7 with CD146neg fibroblasts, live cell imaging) is “significantly decreased proliferation”. Further, under “MCF-7 with CD146pos (HS27a) fibroblasts, 10 μM”, the effect on proliferation entry is given as “not significantly changed; also recorded: unchanged”.

(Values after patent US10488416B2, “Targeting breast cancer therapy based on stromal subtypes and CD146 composition” (The Regents of the University of Colorado, a Body Corporate, priority 2014, dated 2019).)
